Laboratory results as given in paper PMC7094737 (Journal of Molecular Biology, 2008).
Residue numbers refer to the chain shown, from its start.

Legend:
[1] = target: T1, MDO1 G270Y (Homo sapiens, UniProt Q9BQ69, G270Y); type: binding; details: to MDO1 G270Y; ITC at 30 °C; NB, nonbinding
T1 sequence (Q9BQ69 83-325 G270Y): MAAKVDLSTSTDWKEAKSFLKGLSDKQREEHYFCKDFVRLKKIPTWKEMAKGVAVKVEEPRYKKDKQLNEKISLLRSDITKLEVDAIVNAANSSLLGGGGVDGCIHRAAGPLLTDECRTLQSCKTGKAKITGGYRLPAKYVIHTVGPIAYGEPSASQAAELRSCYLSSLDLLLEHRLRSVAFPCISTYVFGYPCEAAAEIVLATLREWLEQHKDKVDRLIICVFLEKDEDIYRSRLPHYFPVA

[2] = target: T2, GDAP2 (Homo sapiens, UniProt Q9NXN4); type: binding; details: to GDAP2; ITC at 30 °C; NB, nonbinding
T2 sequence (Q9NXN4 1-231 isoform Q9NXN4-2): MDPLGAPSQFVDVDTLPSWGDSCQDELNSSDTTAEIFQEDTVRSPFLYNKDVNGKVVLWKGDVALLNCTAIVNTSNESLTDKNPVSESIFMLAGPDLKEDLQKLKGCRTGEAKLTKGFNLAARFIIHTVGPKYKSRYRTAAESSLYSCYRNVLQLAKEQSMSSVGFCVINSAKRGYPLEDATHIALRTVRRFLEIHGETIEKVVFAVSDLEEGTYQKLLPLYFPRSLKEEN

[3] = target: T3, SFV macro (nsP3) (Semliki forest virus, UniProt P08411); type: binding
T3 sequence (P08411 1337-1503 limits assumed): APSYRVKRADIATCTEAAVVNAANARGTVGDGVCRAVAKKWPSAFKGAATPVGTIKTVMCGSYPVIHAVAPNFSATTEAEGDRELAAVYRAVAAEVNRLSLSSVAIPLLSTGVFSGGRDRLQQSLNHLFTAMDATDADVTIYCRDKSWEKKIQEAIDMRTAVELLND

[4] = target: T4, HEV macro (Hepatitis E virus genotype 1, UniProt P29324); details: read-out: affinity for ADP-ribose, previously shown; cited from earlier work
T4 sequence (P29324 775-960): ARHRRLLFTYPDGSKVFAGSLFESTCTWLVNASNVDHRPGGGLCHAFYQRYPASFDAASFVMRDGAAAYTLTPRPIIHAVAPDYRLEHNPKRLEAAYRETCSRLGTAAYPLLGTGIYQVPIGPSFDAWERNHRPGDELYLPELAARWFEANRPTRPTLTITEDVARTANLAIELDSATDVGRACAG

[5] = target: T5, MDO1 G182Y (Homo sapiens, UniProt Q9BQ69, G182Y); type: binding; details: to MDO1 G182Y; ITC at 30 °C; NB, nonbinding
T5 sequence (Q9BQ69 83-325 G182Y): T1 sequence (Q9BQ69 83-325 G270Y) with G100Y, Y188G

## ADP-ribose
[1]
  ADP-ribose binding, Kd: inactivated ADP-ribose binding
[2]
  ADP-ribose binding, Kd: completely inactive
[3]; SFV macro (167-aa and 328-aa forms), ITC in the presence of 500 mM NaCl
  ADP-ribose binding: no ADP-ribose binding was detected
[3]; […], ITC at 30 °C, NB, nonbinding
  ADP-ribose binding, Kd: unable to detect the binding
[4]
  Kd: > 50 µM
[5]
  ADP-ribose binding, Kd: inactivated ADP-ribose binding
